The record followed here is patent US20040048235A1, “Methods and compositions for the selective modification of nucleic acids” (published 2004).

The chains behind the UniProt entries cited, without tags or fusion partners. Residues count along the entry.
UniProt P02768, 25-609 limits assumed: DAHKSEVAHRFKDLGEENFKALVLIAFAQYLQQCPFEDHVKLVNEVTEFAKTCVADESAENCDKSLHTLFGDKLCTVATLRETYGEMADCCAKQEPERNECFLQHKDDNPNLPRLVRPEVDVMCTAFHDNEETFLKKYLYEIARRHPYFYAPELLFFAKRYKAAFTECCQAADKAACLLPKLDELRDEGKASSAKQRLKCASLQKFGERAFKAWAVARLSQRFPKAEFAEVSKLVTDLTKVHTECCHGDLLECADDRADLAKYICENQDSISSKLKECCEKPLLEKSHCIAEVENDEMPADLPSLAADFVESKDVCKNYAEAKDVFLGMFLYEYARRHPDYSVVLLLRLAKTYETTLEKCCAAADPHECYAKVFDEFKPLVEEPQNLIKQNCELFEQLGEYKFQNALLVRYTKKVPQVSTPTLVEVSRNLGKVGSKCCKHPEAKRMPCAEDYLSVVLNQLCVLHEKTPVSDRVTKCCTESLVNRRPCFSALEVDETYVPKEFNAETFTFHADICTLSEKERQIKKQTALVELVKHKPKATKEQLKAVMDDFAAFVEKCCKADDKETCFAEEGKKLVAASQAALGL

The test system of one data set is MS2 phage. Particulars: pH 7.0, 25° C.
A short description of data set [1]: Potentiometric titration, pKa of protonizable groups. Particulars: 0.15 M NaCl aqueous solution, 25° C.
The next data set deals with Bacteriophage MS2. The experiment in a line: Phage MS2 infectivity inactivation kinetics. To be noted: pH 7.5, 0.15 M NaCl, 20° C.
For data set [2], the target named is T1, human serum albumin (Homo sapiens, UniProt P02768). The experiment in a line: Protein modification, isoelectric focusing analysis of albumin. To be noted: for IEF pattern of albumin: 0.9% human serum albumin.
Data set [3] has as its target T1, human serum albumin. The experiment in a line: Protein modification, SDS-PAGE analysis of albumin. Particulars: 0.9% human serum albumin.
The mark [4] stands for this setting: Buffer B: 0.075 M NaCl, 0.2 M MOPS.
Setting [5] is: Buffer D: 0.075 M NaCl, 0.2 M phosphate.
Setting [6] is: extent of inactivation 11 log10, monomer 25 mM or trimer 0.4 mM.
Where [7] appears, read: extent of inactivation 32 log10, monomer 25 mM.
The mark [8] stands for this setting: extent of inactivation 41 log10, monomer 25 mM.
Where [9] appears, read: extent of inactivation 83 log10, monomer 25 mM.

Read-outs that look alike come from different tables or passages of the source.

As for “β-bromoethyl-triethylenetetramine tetrabromohydrate”, the results for the Rate constant with MS2 phage (setting [4]) and in the data set with MS2 phage (setting [5]) were 6.3 ± 0.9 mM ‘hr’ and 0.29 ± 0.04 mM ‘hr’, respectively.

With “β-bromoethyl-diethylenetriamine tribromohydrate”, the Rate constant with MS2 phage (setting [4]) is reported as 3.0 ± 0.4 mM ‘hr’; in the data set with MS2 phage (setting [5]), 0.17 ± 0.02 mM ‘hr’.

`C1CN1` registered a pKa aziridino in data set [1] of 8.1. For the same compound, the “Extent of aziridino group protonation (B)” value reads like this: (pH 6.5) 0.98; (pH 7.5) 0.80; (pH 8.5) 0.28. The “Total average positive charge (A)” value by setting is: (pH 6.5) 0.96; (pH 7.5) 0.80; (pH 8.5) 0.28. For the same compound, in the data set on Bacteriophage MS2, the “Rate constant of phage MS2 infectivity inactivation, reactive form of the agent (k1, in parenthesis)” value was “(1.25) M^−1 · min^−1”. Further, the “Rate constant of phage MS2 infectivity inactivation (k)” value in the data set with Bacteriophage MS2 (total concentration of agent) was 1.5 ± 0.07 M⁻¹ min⁻¹. Further, the “IEF pattern of albumin” value at human serum albumin [2] (setting [6]), on human serum albumin [2] (setting [7]), at human serum albumin [2] (setting [8]) and at human serum albumin [2] (setting [9]) was “No change*” in each case. Further, the “Effect on albumin charge by isoelectric focusing” value on human serum albumin [2] (same degree of inactivation, up to 81 orders of magnitude) is on record as “significant increase in charge heterogeneity”. The “SDS-PAGE (reduced and non-reduced) of albumin” value at human serum albumin [3] (setting [6]), at human serum albumin [3] (setting [7]), at human serum albumin [3] (setting [8]) and on human serum albumin [3] (setting [9]) was “No change*” throughout.
